# scFv variants of Ab-14 (light chain) against a SARS-CoV-2 spike peptide

All variants were tested on one target, the spike HR2 peptide PDVDLGDISGINAS (SARS-CoV-2).

The variants keep the heavy chain, the linker and the frameworks of Ab-14 (scFv order VH, three GGGGS repeats, VL).
VH: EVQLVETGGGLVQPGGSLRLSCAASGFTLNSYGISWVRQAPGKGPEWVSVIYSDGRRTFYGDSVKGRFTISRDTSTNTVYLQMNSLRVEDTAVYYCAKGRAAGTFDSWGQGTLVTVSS
VL: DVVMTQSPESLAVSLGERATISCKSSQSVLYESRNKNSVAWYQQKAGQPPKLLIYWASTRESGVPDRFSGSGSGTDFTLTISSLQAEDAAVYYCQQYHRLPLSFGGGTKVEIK

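Phage display of a naive human antibody library on the peptide gave the parent. AAYL50 was designed without a model: most single CDR substitutions and a random sample of double and triple ones. AlphaSeq pools MATa yeast showing the antibodies with MATalpha yeast showing the peptide. Binding brings cells together so that they mate, and sequencing counts the barcode pairs among the diploids. Scores were corrected for input abundance and mapped to Kd with protein pairs of known affinity run in the same pool. There are three technical replicates.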

Changes read parent residue, position, new residue, counted from the first residue of the VL shown. Numbers give log10(Kd / nM), so 0 is 1 nM and 3 is 1 µM. Smaller is tighter. Replicates are averaged; those with no signal do not enter the mean. Where no diploid with the target was found in any replicate, the entry reads "nd": below detection, most likely a poor binder, though not proof of it. The list is sorted by this average, lowest first, undetected variants last. Nonspecific signal, from three strains lacking the peptide, appeared in 18% of pairings of library AAYL50, centred on 4.19 (5% of these signals below 2.99); values are not corrected for it. The control count says in how many pairings with the empty strains this scFv gave a signal. Parent in this assay: reference entry 0.65, copy in this library 1.68.

With Q27N R34F W56K the result was 0.19 (3 of 3 replicates; controls 0 of 9).
With V29E W56T the result was 0.19 (3 of 3 replicates; controls 2 of 9).
With Y31V H98D L100F the result was 0.56 (3 of 3 replicates; controls 0 of 9).
With Y97P P101H S103D the result was 0.61 (3 of 3 replicates; controls 6 of 9).
With A57E T59M H98M the result was 0.64 (3 of 3 replicates; controls 0 of 9).
With Q27I L30H Q96H the result was 0.74 (3 of 3 replicates; controls 0 of 9).
With Q96L H98S L102S the result was 0.75 (3 of 3 replicates; controls 0 of 9).
With V29E Y97G the result was 0.93 (3 of 3 replicates; controls 5 of 9).
With E32A R34D H98D the result was 0.96 (3 of 3 replicates; controls 0 of 9).
With S28E V29S K36P the result was 1.00 (3 of 3 replicates; controls 1 of 9).
With S25A V29T S62N the result was 1.01 (3 of 3 replicates; controls 0 of 9).
With Q27D S62W P101E the result was 1.23 (3 of 3 replicates; controls 1 of 9).
With K36P W56G Q96P the result was 1.42 (3 of 3 replicates; controls 4 of 9).
With S26D Q27C S33A the result was 1.61 (3 of 3 replicates; controls 0 of 9).
With S25E N35G E61Y the result was 1.93 (3 of 3 replicates; controls 3 of 9).
With L30V T59L E61C the result was 1.94 (3 of 3 replicates; controls 2 of 9).
With S26G S38P P101S the result was 2.02 (3 of 3 replicates; controls 2 of 9).
With S28P S38N Y97V the result was 2.51 (3 of 3 replicates; controls 1 of 9).
With S28C L30Q Q96Y the result was 2.53 (3 of 3 replicates; controls 1 of 9).
With S62D Y97W the result was 3.12 (3 of 3 replicates; controls 0 of 9).
With K36I A40W R99T the result was 3.43 (2 of 3 replicates; controls 1 of 9).

The remaining entries, values ahead:

Result 3.82 (3 of 3 replicates; controls 4 of 9), variant S26L S28Y S103P.
Result 3.93 (1 of 3 replicates; controls 1 of 9), variant S28C K36Y A57P.
Result 4.02 (2 of 3 replicates; controls 3 of 9), variant S26H S58I T59W.
Result 4.16 (3 of 3 replicates; controls 1 of 9), variant E32F K36A N37I.
Result 4.35 (2 of 3 replicates; controls 6 of 9), variant V39W H98N P101G.
Result 4.56 (1 of 3 replicates; controls 2 of 9), variant S58H R99Y L102V.
Result 4.69 (1 of 3 replicates; controls 6 of 9), variant S38E W56T Y97S.
Result 4.74 (2 of 3 replicates; controls 6 of 9), variant S38R H98M L100T.
Result 4.98 (1 of 3 replicates; controls 4 of 9), variant S25A R60D R99V.
Result 5.17 (1 of 3 replicates; controls 0 of 9), variant Y97T R99I L102Y.
Result 5.20 (2 of 3 replicates; controls 4 of 9), variant S26R S38T V39E.
Result 5.23 (1 of 3 replicates; controls 2 of 9), variant S38Y R60V S62M.
Result nd (0 of 3 replicates; controls 2 of 9), variant S38E Y97M L100C.
Result nd (0 of 3 replicates; controls 0 of 9), variant S58E S62A L102R.
Result nd (0 of 3 replicates; controls 0 of 9), variant R34G Y97V H98P.
Result nd (0 of 3 replicates; controls 0 of 9), variant Q27S W56F S58F.
Result nd (0 of 3 replicates; controls 4 of 9), variant S26F N37K Y97Q.
Result nd (0 of 3 replicates; controls 0 of 9), variant K24S N37E H98P.
Result nd (0 of 3 replicates; controls 0 of 9), variant S26M Y31D S62E.
Result nd (0 of 3 replicates; controls 1 of 9), variant Y31W E61Q L102W.
Result nd (0 of 3 replicates; controls 4 of 9), variant A57K R60P L102I.
Result nd (0 of 3 replicates; controls 0 of 9), variant S26R K36A Q95M.

The first 4 entries again:

changes,mean log10 Kd (nM),detected,empty controls
Q27N R34F W56K,0.19,3/3,0/9
V29E W56T,0.19,3/3,2/9
Y31V H98D L100F,0.56,3/3,0/9
Y97P P101H S103D,0.61,3/3,6/9

Reference: Engelhart et al. 2022, doi:10.1038/s41597-022-01779-4. File: FLAb, binding data.